{
  "sequences": {"note": "Amino acid sequences for entries named in this document (tags omitted). Residues count along the entry.", "UniProt P02768, 25-609": "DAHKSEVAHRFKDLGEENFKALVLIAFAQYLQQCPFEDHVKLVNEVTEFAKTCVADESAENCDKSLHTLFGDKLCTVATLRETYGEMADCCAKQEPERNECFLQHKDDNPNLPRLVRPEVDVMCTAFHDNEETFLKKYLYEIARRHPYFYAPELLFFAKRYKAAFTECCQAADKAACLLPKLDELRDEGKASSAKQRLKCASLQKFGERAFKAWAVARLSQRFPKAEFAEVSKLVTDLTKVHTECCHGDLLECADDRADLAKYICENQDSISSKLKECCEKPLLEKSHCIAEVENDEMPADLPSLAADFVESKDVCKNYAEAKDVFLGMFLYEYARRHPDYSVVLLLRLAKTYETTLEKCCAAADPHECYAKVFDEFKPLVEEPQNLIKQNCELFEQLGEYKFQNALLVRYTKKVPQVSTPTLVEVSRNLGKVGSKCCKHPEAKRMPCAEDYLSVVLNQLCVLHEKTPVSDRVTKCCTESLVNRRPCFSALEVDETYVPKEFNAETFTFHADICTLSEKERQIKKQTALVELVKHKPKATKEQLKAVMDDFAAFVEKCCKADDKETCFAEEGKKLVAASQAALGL"},
  "source": "patent US20260027244A1",
  "about": "“SILICON-BASED FLUORIDE ACCEPTOR GROUPS FOR RADIOPHARMACEUTICALS” (Technische Universität München, priority 2022, published 2026)",
  "key": {"[1]": {"target": "T1, human serum albumin (HSA) (Homo sapiens, UniProt P02768)", "test": "HSA binding of reference substances from literature (HPAC calibration)", "conditions": "logarithmic value of HSA binding values"}, "[2]": {"target": "T1, human serum albumin (HSA)", "conditions": "HSA binding values obtained from literature; cited from earlier work"}},
  "data": [
    {"smiles": "NC(=O)N1c2ccccc2C=Cc2ccccc21", "note": "[Carabamazepine]", "values": [
      {"measurement": "Log K HSA", "setting": "[1]", "value": 0.46},
      {"measurement": "lit. HSA [%]", "setting": "[2]", "value": 75.00, "unit": "%"}
    ]}
  ]
}
